{"source": "PubChem BioAssay (NCI)", "assay_in_all_cases": "NCI-60 cell line screen, 48 h", "key": {"MCF7 breast": {"tested_on": "MCF7 breast"}, "NCI-H322M lung": {"tested_on": "NCI-H322M lung"}, "UACC-257 melanoma": {"tested_on": "UACC-257 melanoma"}, "RPMI-8226 leukemia": {"tested_on": "RPMI-8226 leukemia"}, "EKVX NSCLC": {"tested_on": "EKVX NSCLC"}, "PC-3 prostate": {"tested_on": "PC-3 prostate"}, "OVCAR-8 ovarian": {"tested_on": "OVCAR-8 ovarian"}, "IGROV1 ovarian": {"tested_on": "IGROV1 ovarian"}, "ACHN renal": {"tested_on": "ACHN renal"}, "HCT-15 colon": {"tested_on": "HCT-15 colon"}, "LOX IMVI melanoma": {"tested_on": "LOX IMVI melanoma"}, "HT29 colon": {"tested_on": "HT29 colon"}, "SF-539 CNS": {"tested_on": "SF-539 CNS"}, "786-0 renal": {"tested_on": "786-0 renal"}, "HOP-62 NSCLC": {"tested_on": "HOP-62 NSCLC"}, "SK-MEL-5 melanoma": {"tested_on": "SK-MEL-5 melanoma"}, "A549 NSCLC": {"tested_on": "A549 NSCLC"}, "DU-145 prostate": {"tested_on": "DU-145 prostate"}, "HCT-116 colon": {"tested_on": "HCT-116 colon"}, "TK-10 renal": {"tested_on": "TK-10 renal"}, "COLO 205 colon": {"tested_on": "COLO 205 colon"}, "M14 melanoma": {"tested_on": "M14 melanoma"}, "UO-31 renal": {"tested_on": "UO-31 renal"}, "SK-OV-3 ovarian": {"tested_on": "SK-OV-3 ovarian"}, "NCI/ADR-RES ovarian": {"tested_on": "NCI/ADR-RES ovarian"}, "U251 CNS": {"tested_on": "U251 CNS"}, "SK-MEL-28 melanoma": {"tested_on": "SK-MEL-28 melanoma"}, "SNB-19 CNS": {"tested_on": "SNB-19 CNS"}, "OVCAR-4 ovarian": {"tested_on": "OVCAR-4 ovarian"}, "OVCAR-5 ovarian": {"tested_on": "OVCAR-5 ovarian"}, "OVCAR-3 ovarian": {"tested_on": "OVCAR-3 ovarian"}, "CAKI-1 renal": {"tested_on": "CAKI-1 renal"}, "SNB-75 CNS": {"tested_on": "SNB-75 CNS"}, "SK-MEL-2 melanoma": {"tested_on": "SK-MEL-2 melanoma"}, "MDA-MB-231 breast": {"tested_on": "MDA-MB-231 breast"}, "UACC-62 melanoma": {"tested_on": "UACC-62 melanoma"}, "A498 renal": {"tested_on": "A498 renal"}, "SW-620 colon": {"tested_on": "SW-620 colon"}, "SF-295 CNS": {"tested_on": "SF-295 CNS"}, "HCC-2998 colon": {"tested_on": "HCC-2998 colon"}, "RXF 393 renal": {"tested_on": "RXF 393 renal"}, "T-47D breast": {"tested_on": "T-47D breast"}, "NCI-H23 lung": {"tested_on": "NCI-H23 lung"}, "HS 578T breast": {"tested_on": "HS 578T breast"}, "HOP-92 NSCLC": {"tested_on": "HOP-92 NSCLC"}, "NCI-H226 lung": {"tested_on": "NCI-H226 lung"}, "MALME-3M melanoma": {"tested_on": "MALME-3M melanoma"}, "BT-549 breast": {"tested_on": "BT-549 breast"}, "SN12C renal": {"tested_on": "SN12C renal"}, "MDA-MB-435": {"tested_on": "MDA-MB-435"}, "NCI-H460 lung": {"tested_on": "NCI-H460 lung"}, "SF-268 CNS": {"tested_on": "SF-268 CNS"}, "NCI-H522 lung": {"tested_on": "NCI-H522 lung"}, "KM12 colon": {"tested_on": "KM12 colon"}}, "note": "Some salts or complexes appear as unconnected parts, following the source record.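 How tested: cells in 96-well plates exposed to compound for 48 hours at five concentrations. GI50 is the concentration that inhibits growth by half. TGI: total growth inhibition.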", "data": [{"smiles": "O=[N+]([O-])c1cc([N+](=O)[O-])c(O)c([N+](=O)[O-])c1.c1ccc([I+]c2ccccc2)cc1", "values": [{"measurement": "TGI", "setting": "MCF7 breast", "result": "> 100", "unit": "µM"}, {"measurement": "TGI", "setting": "NCI-H322M lung", "result": "> 100", "unit": "µM"}, {"measurement": "TGI", "setting": "UACC-257 melanoma", "result": "> 100", "unit": "µM"}, {"measurement": "TGI", "setting": "RPMI-8226 leukemia", "result": "> 100", "unit": "µM"}, {"measurement": "TGI", "setting": "EKVX NSCLC", "result": 32.4, "unit": "µM"}, {"measurement": "TGI", "setting": "PC-3 prostate", "result": "> 100", "unit": "µM"}, {"measurement": "TGI", "setting": "OVCAR-8 ovarian", "result": "> 100", "unit": "µM"}, {"measurement": "TGI", "setting": "IGROV1 ovarian", "result": "> 100", "unit": "µM"}, {"measurement": "TGI", "setting": "ACHN renal", "result": "> 100", "unit": "µM"}, {"measurement": "TGI", "setting": "HCT-15 colon", "result": "> 100", "unit": "µM"}, {"measurement": "TGI", "setting": "LOX IMVI melanoma", "result": "> 100", "unit": "µM"}, {"measurement": "TGI", "setting": "HT29 colon", "result": "> 100", "unit": "µM"}, {"measurement": "TGI", "setting": "SF-539 CNS", "result": "> 100", "unit": "µM"}, {"measurement": "TGI", "setting": "786-0 renal", "result": "> 100", "unit": "µM"}, {"measurement": "TGI", "setting": "HOP-62 NSCLC", "result": 52.3, "unit": "µM"}, {"measurement": "TGI", "setting": "SK-MEL-5 melanoma", "result": 19.4, "unit": "µM"}, {"measurement": "TGI", "setting": "A549 NSCLC", "result": "> 100", "unit": "µM"}, {"measurement": "TGI", "setting": "DU-145 prostate", "result": "> 100", "unit": "µM"}, {"measurement": "TGI", "setting": "HCT-116 colon", "result": "> 100", "unit": "µM"}, {"measurement": "TGI", "setting": "TK-10 renal", "result": "> 100", "unit": "µM"}, {"measurement": "TGI", "setting": "COLO 205 colon", "result": "> 100", "unit": "µM"}, {"measurement": "TGI", "setting": "M14 melanoma", "result": "> 100", "unit": "µM"}, {"measurement": "TGI", "setting": "UO-31 renal", "result": "> 100", "unit": "µM"}, {"measurement": "TGI", "setting": "SK-OV-3 ovarian", "result": "> 100", "unit": "µM"}, {"measurement": "TGI", "setting": "NCI/ADR-RES ovarian", "result": "> 100", "unit": "µM"}, {"measurement": "TGI", "setting": "U251 CNS", "result": "> 100", "unit": "µM"}, {"measurement": "TGI", "setting": "SK-MEL-28 melanoma", "result": "> 100", "unit": "µM"}, {"measurement": "TGI", "setting": "SNB-19 CNS", "result": "> 100", "unit": "µM"}, {"measurement": "TGI", "setting": "OVCAR-4 ovarian", "result": "> 100", "unit": "µM"}, {"measurement": "TGI", "setting": "OVCAR-5 ovarian", "result": "> 100", "unit": "µM"}, {"measurement": "TGI", "setting": "OVCAR-3 ovarian", "result": "> 100", "unit": "µM"}, {"measurement": "TGI", "setting": "CAKI-1 renal", "result": 8.2, "unit": "µM"}, {"measurement": "GI50", "setting": "SNB-75 CNS", "result": 15.6, "unit": "µM"}, {"measurement": "TGI", "setting": "SNB-75 CNS", "result": "> 100", "unit": "µM"}, {"measurement": "TGI", "setting": "SK-MEL-2 melanoma", "result": "> 100", "unit": "µM"}, {"measurement": "TGI", "setting": "MDA-MB-231 breast", "result": "> 100", "unit": "µM"}, {"measurement": "GI50", "setting": "UACC-62 melanoma", "result": 29.8, "unit": "µM"}, {"measurement": "TGI", "setting": "UACC-62 melanoma", "result": "> 100", "unit": "µM"}, {"measurement": "TGI", "setting": "A498 renal", "result": "> 100", "unit": "µM"}, {"measurement": "TGI", "setting": "SW-620 colon", "result": "> 100", "unit": "µM"}, {"measurement": "TGI", "setting": "SF-295 CNS", "result": 14.3, "unit": "µM"}, {"measurement": "TGI", "setting": "HCC-2998 colon", "result": "> 100", "unit": "µM"}, {"measurement": "TGI", "setting": "RXF 393 renal", "result": "> 100", "unit": "µM"}, {"measurement": "TGI", "setting": "T-47D breast", "result": "> 100", "unit": "µM"}, {"measurement": "TGI", "setting": "NCI-H23 lung", "result": "> 100", "unit": "µM"}, {"measurement": "TGI", "setting": "HS 578T breast", "result": "> 100", "unit": "µM"}, {"measurement": "TGI", "setting": "HOP-92 NSCLC", "result": "> 100", "unit": "µM"}, {"measurement": "TGI", "setting": "NCI-H226 lung", "result": "> 100", "unit": "µM"}, {"measurement": "TGI", "setting": "MALME-3M melanoma", "result": 97.2, "unit": "µM"}, {"measurement": "TGI", "setting": "BT-549 breast", "result": "> 100", "unit": "µM"}, {"measurement": "TGI", "setting": "SN12C renal", "result": "> 100", "unit": "µM"}, {"measurement": "TGI", "setting": "MDA-MB-435", "result": "> 100", "unit": "µM"}, {"measurement": "TGI", "setting": "NCI-H460 lung", "result": 22.3, "unit": "µM"}, {"measurement": "TGI", "setting": "SF-268 CNS", "result": "> 100", "unit": "µM"}, {"measurement": "TGI", "setting": "NCI-H522 lung", "result": 85.5, "unit": "µM"}, {"measurement": "TGI", "setting": "KM12 colon", "result": "> 100", "unit": "µM"}]}]}
